Values joined by “and” are separate entries in the source; they are usually repeats but may differ in a detail not shown here. Identical values can stand only once.
How the values were obtained:
SUV39H1 = target: T1, SUV39H1 (Homo sapiens, UniProt O43463); assay: Radiometric EZ-tip methyltransferase assay, steady-state kinetics, SUV39H1; format: biochemical; details: SUV39H1 100 nM, pH 7.9, 30 °C, n = 3, SD; for Km: H3(1–17)K9 peptide varied 0.05–50 μM; for Km / kcat (peptide varied) / kcat/KM (peptide): SAM fixed 50 μM; for Km / kcat (SAM varied): 20 min; for kcat (SAM varied): peptide fixed 50 μM (saturating), SAM varied 0.1–100 μM; for kcat (peptide varied) / kcat/KM (peptide): peptide varied 0.05–50 μM
T1 construct: made in house; host or cells: Rosetta E. coli (plasmid generated for this study)
T1 sequence (O43463 1-412): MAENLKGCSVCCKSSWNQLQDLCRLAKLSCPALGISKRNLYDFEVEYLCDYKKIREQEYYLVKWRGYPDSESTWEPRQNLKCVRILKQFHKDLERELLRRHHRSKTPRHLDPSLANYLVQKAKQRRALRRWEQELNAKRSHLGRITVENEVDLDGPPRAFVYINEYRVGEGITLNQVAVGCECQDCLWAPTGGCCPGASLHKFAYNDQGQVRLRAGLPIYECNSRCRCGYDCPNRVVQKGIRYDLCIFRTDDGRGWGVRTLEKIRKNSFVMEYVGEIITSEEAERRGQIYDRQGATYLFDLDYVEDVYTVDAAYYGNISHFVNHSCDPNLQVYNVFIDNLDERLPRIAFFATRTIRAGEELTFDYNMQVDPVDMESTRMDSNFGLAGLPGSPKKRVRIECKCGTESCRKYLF
Description: (§1) The H. sapiens EHMT1 catalytic subunit (Addgene plasmid #51314) and H. sapiens SUV39H2 catalytic subunit (Addgene plasmid #25115) E. coli expression plasmids used in this study were acquired from Addgene, made possible through a gift by Cheryl Arrowsmith. The H. sapiens EHMT2 catalytic subunit E. coli expression plasmid used in this study was provided by the laboratory of Peter W. Lewis at the University of Wisconsin-Madison. All remaining histone methyltransferase expression plasmids were generated for this study and will be made freely available from Addgene. HMT amino acids included in expression plasmids are as follows: EHMT1 = 982 to 1266; EHMT2 = 913 to 1193; SUV39H1 = full length with N-terminal maltose-binding protein; SUV39H2 = 162 to 410.
(§2) Michaelis-Menten saturation curves were generated under steady-state conditions with the non-titrated component concentration being present at ≥5× KM specific to each enzyme. 1 × 10^5 CPM values were provided by [methyl-^3H] SAM in each reaction. Reaction times and enzyme concentrations were optimized for each HMT to ensure substrate turnover remained below 20%. 50 μM H3 peptide was combined with varying SAM concentrations up to 100 μM and either EHMT1 (25 nM), EHMT2 (25 nM), SUV39H1 (100 nM), or SUV39H2 (25 nM) in histone methyltransferase (HMT) activity buffer (50 mM HEPES pH 7.9, 0.5 mM DTT, 0.1 mM AEBSF, 2 mM MgCl2, 0.01% v/v Triton X-100) with a final volume of 20 μl. Enzyme concentrations are calculated for the monomeric form. Reactions were incubated at 30 °C for 20 min before quenching with TFA for a final concentration of 2% v/v TFA. Then, the reactions were cleaned using StageTips (i.e., two Attract SPE disks (Affinisep) in a pipette tip) with 200 μl acidified water (0.5% v/v formic acid) and eluted with 100 μl elution buffer (80% v/v acetonitrile, 0.5% v/v formic acid). The eluates were added to 2 ml of Ultima Gold LSC Cocktail (Sigma-Aldrich) and counted on a scintillation counter (PerkinElmer). All CPM values were corrected for decreased StageTip capacity when peptide concentrations exceeded 10 μM.
(§3) CPM values were converted to rates of product formation (μM/min) and used to generate Michaelis-Menten kinetic constants via GraphPad Prism v9.5.0 via the following equation: Y = Et∗kcat∗X/(KM + X). Variable definitions are as follows: Y = rate of product formation/enzyme velocity; X = substrate concentration; Et = concentration of enzyme in reaction.

By UniProt entry, the sequences of proteins in these tests, tags left out. Residues count along the entry.
UniProt Q9H5I1, 162-410: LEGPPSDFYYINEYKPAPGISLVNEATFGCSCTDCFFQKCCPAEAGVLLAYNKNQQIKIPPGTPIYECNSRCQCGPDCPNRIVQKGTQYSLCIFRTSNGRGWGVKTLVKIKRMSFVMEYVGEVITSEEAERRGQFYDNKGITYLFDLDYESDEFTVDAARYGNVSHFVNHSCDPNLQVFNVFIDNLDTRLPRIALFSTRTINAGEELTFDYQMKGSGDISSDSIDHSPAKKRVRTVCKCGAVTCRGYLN

EHMT2 catalytic domain = target: T2, EHMT2 catalytic domain (Homo sapiens, UniProt Q96KQ7); assay: Radiometric EZ-tip methyltransferase assay, steady-state kinetics, EHMT2; format: biochemical, H. sapiens; details: EHMT2 25 nM, pH 7.9, 30 °C, n = 3, SD; for Km: H3(1–17)K9 peptide varied 0.05–50 μM; for Km / kcat (peptide varied) / kcat/KM (peptide): SAM fixed 50 μM; for Km / kcat (SAM varied): 20 min; for kcat (SAM varied): peptide fixed 50 μM (saturating), SAM varied 0.1–100 μM; for kcat (peptide varied) / kcat/KM (peptide): peptide varied 0.05–50 μM
T2 construct: EHMT2 = 913 to 1193; made in house; host or cells: Rosetta E. coli (plasmid from the laboratory of Peter W. Lewis)
T2 sequence (Q96KQ7 913-1193): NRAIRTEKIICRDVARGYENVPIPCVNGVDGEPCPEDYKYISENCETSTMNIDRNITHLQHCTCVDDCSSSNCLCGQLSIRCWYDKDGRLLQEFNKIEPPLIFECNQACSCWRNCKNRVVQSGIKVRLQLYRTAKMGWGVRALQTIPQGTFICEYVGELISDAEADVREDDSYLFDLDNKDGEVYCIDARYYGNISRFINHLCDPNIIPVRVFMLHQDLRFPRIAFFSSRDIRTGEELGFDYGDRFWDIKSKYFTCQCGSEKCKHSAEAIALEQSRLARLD
Description: as §1, §2, §3

EHMT1 catalytic domain = target: T3, EHMT1 catalytic domain (Homo sapiens, UniProt Q9H9B1); assay: Radiometric EZ-tip methyltransferase assay, steady-state kinetics, EHMT1; format: biochemical, H. sapiens; details: EHMT1 25 nM, pH 7.9, 30 °C, n = 3, SD; for Km: H3(1–17)K9 peptide varied 0.05–50 μM; for Km / kcat (peptide varied) / kcat/KM (peptide): SAM fixed 50 μM; for Km / kcat (SAM varied): 20 min; for kcat (SAM varied): peptide fixed 50 μM (saturating), SAM varied 0.1–100 μM; for kcat (peptide varied) / kcat/KM (peptide): peptide varied 0.05–50 μM
T3 construct: EHMT1 = 982 to 1266; host or cells: Rosetta E. coli
T3 sequence (Q9H9B1 982-1266): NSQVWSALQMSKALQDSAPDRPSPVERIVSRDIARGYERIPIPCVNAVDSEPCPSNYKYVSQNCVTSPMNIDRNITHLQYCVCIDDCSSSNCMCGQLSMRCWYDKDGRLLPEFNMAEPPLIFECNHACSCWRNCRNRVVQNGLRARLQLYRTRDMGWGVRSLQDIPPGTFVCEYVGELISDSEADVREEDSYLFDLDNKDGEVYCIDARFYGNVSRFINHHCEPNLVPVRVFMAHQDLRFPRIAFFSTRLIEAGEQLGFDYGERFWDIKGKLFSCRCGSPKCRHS
Description: as §1, §2, §3

SUV39H2 catalytic domain = target: T4, SUV39H2 catalytic domain (Homo sapiens, UniProt Q9H5I1); assay: Radiometric EZ-tip methyltransferase assay, steady-state kinetics, SUV39H2; format: biochemical, H. sapiens; details: SUV39H2 25 nM, pH 7.9, 30 °C, n = 3, SD; for Km: H3(1–17)K9 peptide varied 0.05–50 μM; for Km / kcat (peptide varied) / kcat/KM (peptide): SAM fixed 50 μM; for Km / kcat (SAM varied): 20 min; for kcat (SAM varied): peptide fixed 50 μM (saturating), SAM varied 0.1–100 μM; for kcat (peptide varied) / kcat/KM (peptide): peptide varied 0.05–50 μM
T4 construct: SUV39H2 = 162 to 410; host or cells: Rosetta E. coli
Description: as §1, §2, §3

Substance: H3K9me2: H3(1–17) K9 dimethylated peptide substrate
- Km (SUV39H1): 10.4 ± 2.78 µM
- kcat (SAM varied) (SUV39H1): 0.0005 s⁻¹ and 0.0005 ± 0.00017 s⁻¹
- kcat (peptide varied) (SUV39H1): 0.0015 ± 0.00017 s⁻¹
- kcat/KM (peptide) (SUV39H1): 170 ± 50 M⁻¹ s⁻¹
- Km (EHMT2 catalytic domain): 6.51 ± 1.6 µM
- kcat (SAM varied) (EHMT2 catalytic domain): 0.0175 ± 0.0012 s⁻¹
- kcat (peptide varied) (EHMT2 catalytic domain): 0.008 ± 0.0012 s⁻¹
- kcat/KM (peptide) (EHMT2 catalytic domain): 1300 ± 170 M⁻¹ s⁻¹
- Km (EHMT1 catalytic domain): 64.6 µM
- kcat (SAM varied) (EHMT1 catalytic domain): 0.0112 ± 0.00033 s⁻¹
- kcat (peptide varied) (EHMT1 catalytic domain): 0.021 ± 0.00467 s⁻¹
- kcat/KM (peptide) (EHMT1 catalytic domain): 330 ± 67 M⁻¹ s⁻¹
- Km (SUV39H2 catalytic domain): 8.01 ± 2.95 µM
- kcat (SAM varied) (SUV39H2 catalytic domain): 0.0703 ± 0.00583 s⁻¹
- kcat (peptide varied) (SUV39H2 catalytic domain): 0.0563 ± 0.0187 s⁻¹
- kcat/KM (peptide) (SUV39H2 catalytic domain): 7170 ± 1830 M⁻¹ s⁻¹

Substance: H3K9me1: H3(1–17) K9 monomethylated peptide substrate
- Km (SUV39H1): 1.03 ± 0.14 µM
- kcat (SAM varied) (SUV39H1): 0.005 s⁻¹ and 0.005 ± 0.00083 s⁻¹
- kcat (peptide varied) (SUV39H1): 0.0075 ± 0.001 s⁻¹
- kcat/KM (peptide) (SUV39H1): 7500 ± 330 M⁻¹ s⁻¹
- Km (EHMT2 catalytic domain): 1.68 ± 0.17 µM
- kcat (SAM varied) (EHMT2 catalytic domain): 0.0358 s⁻¹ and 0.0358 ± 0.00383 s⁻¹
- kcat (peptide varied) (EHMT2 catalytic domain): 0.0567 ± 0.00067 s⁻¹
- kcat/KM (peptide) (EHMT2 catalytic domain): 34000 ± 3000 M⁻¹ s⁻¹
- Km (EHMT1 catalytic domain): 3.4 ± 0.72 µM
- kcat (SAM varied) (EHMT1 catalytic domain): 0.0335 s⁻¹ and 0.0335 ± 0.0025 s⁻¹
- kcat (peptide varied) (EHMT1 catalytic domain): 0.036 ± 0.00267 s⁻¹
- kcat/KM (peptide) (EHMT1 catalytic domain): 10800 ± 2170 M⁻¹ s⁻¹
- Km (SUV39H2 catalytic domain): 4.26 ± 0.23 µM
- kcat (SAM varied) (SUV39H2 catalytic domain): 0.059 ± 0.00383 s⁻¹
- kcat (peptide varied) (SUV39H2 catalytic domain): 0.109 ± 0.0013 s⁻¹
- kcat/KM (peptide) (SUV39H2 catalytic domain): 25500 ± 1500 M⁻¹ s⁻¹

Substance: H3K9un: H3(1–17) K9 unmodified peptide substrate
- Km (SUV39H1): 0.6 ± 0.08 µM
- kcat (SAM varied) (SUV39H1): 0.00717 ± 0.00067 s⁻¹
- kcat (peptide varied) (SUV39H1): 0.0102 ± 0.00083 s⁻¹
- kcat/KM (peptide) (SUV39H1): 17200 ± 3000 M⁻¹ s⁻¹
- Km (EHMT2 catalytic domain): 3.62 ± 0.87 µM
- kcat (SAM varied) (EHMT2 catalytic domain): 0.127 s⁻¹ and 0.127 ± 0.00183 s⁻¹
- kcat (peptide varied) (EHMT2 catalytic domain): 0.156 ± 0.00983 s⁻¹
- kcat/KM (peptide) (EHMT2 catalytic domain): 44300 ± 7670 M⁻¹ s⁻¹
- Km (EHMT1 catalytic domain): 1.68 ± 0.13 µM
- kcat (SAM varied) (EHMT1 catalytic domain): 0.212 s⁻¹ and 0.2115 ± 0.0108 s⁻¹
- kcat (peptide varied) (EHMT1 catalytic domain): 0.1852 ± 0.00533 s⁻¹
- kcat/KM (peptide) (EHMT1 catalytic domain): 111000 ± 12000 M⁻¹ s⁻¹
- Km (SUV39H2 catalytic domain): 1.62 ± 0.09 µM
- kcat (SAM varied) (SUV39H2 catalytic domain): 0.0668 ± 0.00567 s⁻¹
- kcat (peptide varied) (SUV39H2 catalytic domain): 0.0877 ± 0.0025 s⁻¹
- kcat/KM (peptide) (SUV39H2 catalytic domain): 54300 ± 3670 M⁻¹ s⁻¹
